We go through two substances from patent US20050019345A1.

The target of one test is BSA (bovine) (UniProt P02769). Description: enzyme-linked binding assay (ELISA format), HRPO-coupled protein on immobilized BSA. A general note: An ELISA detects its analyte on a solid surface through an enzyme-linked reagent.
The target in another test is human laminin (human). Description: enzyme-linked binding assay (ELISA format), HRPO-coupled protein on immobilized matrix protein.
Test [1] concerns the target human collagen type I (human) (UniProt P02452). The description is as above.
The target in test [2] is human fibronectin (human) (UniProt P02751). The description is as above.

In the case of “recombinant purified maltose-binding protein, coupled to horseradish peroxidase (from UniProt P0AEX9 27-392)”, the results for the OD492 (with BSA (bovine); with human laminin (human); in test [1]) were 0.033 OD492, 0.06 OD492 and 0.104 OD492, respectively.
Regarding “recombinant purified maltose-binding protein, coupled to horseradish peroxidase (from UniProt P0AEX9 27-392) (other; other documents disagree on this pair)”, the OD492 in test [2] came out at 0.042 OD492.
